From ChEMBL document CHEMBL1914399 (Bioorg Med Chem Lett, 2011)
Active and inactive are the calls of the source.

Columns and labels:
Mus musculus [1] = assay: Anti-resorptive activity in ovariectomized ddY mouse assessed as increase in total bone mass density at 10 mg/kg/day, po after 4 weeks of post ovariectomy by X-ray absorptiometry analysis
BMDM [2] = assay: Antiresorptive activity in mouse BMDM cells assessed as inhibition of RANKL-induced osteoclastogenesis by measuring TRAP-positive cells
RAW264.7 = assay: Inhibition of RANKL-induced NF-kappaB activation in mouse RAW264.7 cells at 10 uM by luciferase assay
Mus musculus [3] = assay: Anti-resorptive activity in ovariectomized ddY mouse assessed as restoration of lost trabecular bone at 10 mg/kg/day, po after 4 weeks of post ovariectomy by histomorphometric analysis relative to untreated control; conditions: Trabecula
Mus musculus [4] = assay: Anti-resorptive activity in ovariectomized ddY mouse assessed as increase in median bone mass density at 10 mg/kg/day, po after 4 weeks of post ovariectomy by X-ray absorptiometry analysis
BMDM [5] = assay: Inhibition of RANKL-induced ERK activation in mouse BMDM cells by Western blot analysis
Mus musculus [6] = assay: Anti-resorptive activity in ovariectomized ddY mouse assessed as increase in proximal bone mass density at 10 mg/kg/day, po after 4 weeks of post ovariectomy by X-ray absorptiometry analysis
BMDM [7] = assay: Inhibition of RANKL-induced NF-kappaB translocation in mouse BMDM cells by Western blot analysis
Osteoclast = assay: Antiresorptive activity in osteoclasts derived from mouse BMM cells assessed as inhibition of MCSF/RANKL-induced bone resorption
BMDM [8] = assay: Antiresorptive activity in mouse BMDM cells assessed as inhibition of MCSF-induced osteoclastogenesis by measuring TRAP-positive cells

CC(C)N(/C(Cc1ccc([N+](=O)[O-])cc1)=N/P(=O)(Oc1ccccc1)Oc1ccccc1)C(C)C
active: Activity (Mus musculus [1]) | inhibition (BMDM [2]) Dose-dependent effect | inhibition (RAW264.7) Dose-dependent effect | Activity (Mus musculus [3]) | Activity (Mus musculus [4]) | inhibition (BMDM [5]) | Activity (Mus musculus [6]) | inhibition (BMDM [7]) Dose-dependent effect | inhibition (Osteoclast) Dose-dependent effect | inhibition (BMDM [8]) Dose-dependent effect
